Results as given in patent US12145923B2, “Tetrahydroisoquinoline compound, preparation method therefor, pharmaceutical composition containing same, and use thereof” (SHANGHAI INSTITUTE OF MATERIA MEDICA, CHINESE ACADEMY OF …, priority 2018, dated 2024).

Tested on: RAW 264.7 cells
Assay: Cytotoxicity on RAW 264.7 cells (CCK-8 method)
Assay type: cell-based, mouse

COc1cc2c(cc1OC)C(Cc1c[nH]c3ccccc13)N(C=O)CC2 (stereo not drawn) [Compound C9, 1-((1H-indol-3-yl)methyl)-6,7-dimethoxy-3,4-dihydroisoquinoline-2(1H)-formaldehyde]
Cell survival rate/% (RAW 264.7, 0.5 μM): 92.5%
Cell survival rate/% (RAW 264.7, 5 μM): 88.4%
Cell survival rate/% (RAW 264.7, 50 μM): 112.6%

COc1cc2c(cc1OC)[C@H](Cc1c[nH]c3ccccc13)N(C=O)CC2 [(S)-C9, (S)-1-((1H-indol-3-yl)methyl)-6,7-dimethoxy-3,4-dihydroisoquinoline-2(1H)-formaldehyde]
Cell survival rate/% (RAW 264.7, 0.5 μM): 80.9%
Cell survival rate/% (RAW 264.7, 5 μM): 77.8%
Cell survival rate/% (RAW 264.7, 50 μM): 77.9%

COc1cc2c(cc1OC)[C@@H](Cc1c[nH]c3ccccc13)N(C=O)CC2 [(R)-C9, (R)-1-((1H-indol-3-yl)methyl)-6,7-dimethoxy-3,4-dihydroisoquinoline-2(1H)-formaldehyde]
Cell survival rate/% (RAW 264.7, 0.5 μM): 112.8%
Cell survival rate/% (RAW 264.7, 5 μM): 98.4%
Cell survival rate/% (RAW 264.7, 50 μM): 83.9%
